Test results reported in PubChem BioAssay AID522 (The Scripps Research Institute Molecular Screening Center, 2006).
The list shows a part of the results, in another mix than the full data. The source made the active and inactive calls.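 Rule for the calls: active = activation above the mean activation of all tested compounds plus 3 SD (cut at about 50% in these data); inactive = the rest.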

Protein sequences, listed by entry. Tags and fused reporters are not part of them.
UniProt Q13285, whole entry: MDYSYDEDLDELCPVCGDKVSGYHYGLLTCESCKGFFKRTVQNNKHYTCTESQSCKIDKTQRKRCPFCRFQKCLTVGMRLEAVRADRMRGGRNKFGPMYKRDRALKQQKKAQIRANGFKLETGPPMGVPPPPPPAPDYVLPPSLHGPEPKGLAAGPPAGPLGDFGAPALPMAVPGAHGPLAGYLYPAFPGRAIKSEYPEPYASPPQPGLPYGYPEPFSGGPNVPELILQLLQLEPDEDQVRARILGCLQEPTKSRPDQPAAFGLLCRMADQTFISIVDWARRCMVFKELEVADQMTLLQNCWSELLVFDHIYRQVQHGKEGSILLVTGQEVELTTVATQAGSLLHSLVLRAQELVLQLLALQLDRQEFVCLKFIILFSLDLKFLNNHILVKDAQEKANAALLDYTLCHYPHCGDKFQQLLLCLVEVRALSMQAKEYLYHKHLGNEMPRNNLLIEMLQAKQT

target: Steroidogenic factor 1 (Homo sapiens) (UniProt Q13285); assay: activators of human SF-1, primary screen, cell-based, CHO-K1, Gal4-SF-1 LBD, luciferase luminescence (AID 522); conditions: CHO-K1 Gal4-SF-1 LBD luciferase reporter; at 10 µM; stronger effect = higher value; % increase over DMSO SF-1-specific signal
Procedure, shortened: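 Test system: CHO-K1 cells co-transfected with Gal4 DBD–human SF-1 LBD, 5xGal4 luciferase reporter. Quantity: 4,000 cells per well. Compound: 10 µM only. Incubation: compound added 1 h post-seeding, 20 h exposure at 37 °C, 5% CO2. Detection: SteadyLite luciferase luminescence. Replication: one test per compound.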

Row | Structure (SMILES) | activation
1 | O=C(OC1CN2CCC1CC2)C1c2ccccc2Oc2ccccc21 (configuration not stated) | inactive: 13.6%
2 | COc1ccc(NC2CCN(CCc3ccccc3)CC2)c(OC)c1 | inactive: -13.4%
3 | N#CC1(Nc2ccccc2)CCN(CCc2ccccc2)CC1 | inactive: -12.6%
4 | N/C(=N\O)c1c(N)no[n+]1[O-] | inactive: 2.4%
5 | Fc1ccccc1NC1CCN(Cc2ccccc2)CC1 | inactive: -11.3%
6 | CCC(CO)(C(=O)OC1CN2CCC1CC2)c1ccccc1 (configuration not stated) | inactive: 10.4%
7 | CCOc1ncccc1C(=O)NCC1(N2CCOCC2)CCCCC1 | inactive: 4.3%
